Experimental data published in patent US7678794B2, “Potentiators of glutamate receptors” (Eli Lilly and Company, priority 2004, dated 2010).

Biological target: T1, human CysLT1 receptor (Homo sapiens, UniProt Q9Y271)
T1 construct: expressed in transfected cells; host or cells: AV12-664 (ATCC-9595)
T1 sequence (Q9Y271 1-337): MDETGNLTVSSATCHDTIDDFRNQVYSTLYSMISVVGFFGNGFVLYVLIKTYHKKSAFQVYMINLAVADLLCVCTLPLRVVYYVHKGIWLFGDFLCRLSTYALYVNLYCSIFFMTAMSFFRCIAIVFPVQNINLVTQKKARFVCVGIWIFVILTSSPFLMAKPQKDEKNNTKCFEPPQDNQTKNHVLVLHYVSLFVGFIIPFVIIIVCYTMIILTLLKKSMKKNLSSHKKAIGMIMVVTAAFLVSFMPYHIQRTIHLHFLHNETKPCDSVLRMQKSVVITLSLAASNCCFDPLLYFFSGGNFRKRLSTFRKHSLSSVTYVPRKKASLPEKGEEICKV
Assay: Antagonism of LTD4-induced increase in intracellular calcium within a CysLT1 receptor expressing cell line (FLIPR)
Assay type: cell-based
Details: AV12-664 cells expressing human CysLT1; 6 nM LTD4; read-out: antagonism of CysLT1 receptors, IC50
From the text: Antagonism of Cysteinyl-leukotriene D4 (LTD4)—Induced Increase in Intracellular Calcium within a Cysteinyl-Leukotriene 1 (CysLT1) Receptor Expressing Cell Line
Confluent cultures are passaged weekly. Intracellular calcium levels are monitored in the CysLT1-expressing cells with the addition of LTD4, with or without prior exposure to the compounds being tested as antagonists with a Fluorometric Imaging Plate Reader (FLIPR, Molecular Devices). The following buffer is used throughout as an assay buffer: Hanks Buffered Saline Solution without phenol red (GIBCO), with 10 mM HEPES pH 7.4. Cells that had been plated 48 hours prior at a density of 20-25,000 cells per well in a 96-well plate are loaded with a calcium-sensitive dye for 90 minutes at 25° C. Fluo-3 (2 mM in DMSO, Molecular Probes) is mixed with an equal volume of 10% pluronic acid in DMSO, and diluted to 8 μM in the buffer described above containing 10% fetal bovine serum to make the loading buffer. Following loading of the cells, the buffer is removed and replaced with assay buffer prior to drug addition and monitoring on the FLIPR for several minutes. […] Least squares curve fitting with a four-parameter equation is applied to the resulting dose-% inhibition curve to determine the resulting IC50 values.

CCCc1c(OCc2ccc(S(=O)(=O)Nc3cccc(-c4nn[nH]n4)c3)cc2)ccc(C(C)=O)c1O [Example 8, 4-(4-acetyl-3-hydroxy-2-propyl-phenoxymethyl)-N-[3-(2H-tetrazol-5-yl)-phenyl]-benzenesulfonamide]
IC50: < 500 nM
